The subject of the test is anti-morphine-heroin serum antibodies. Kind of test: competitive immunoenzymatic ELISA for antibody specificity. It is filed as binding, rat. As to conditions: competitive antigen, nM-μM range. In general terms: In an ELISA, binding on a coated surface is turned into a signal by an enzyme label.

Chains of the proteins cited; added tags and fusions are not shown. Lines headed by an entry give the natural chain unless they say otherwise; changes in a name come on top.
UniProt P01210: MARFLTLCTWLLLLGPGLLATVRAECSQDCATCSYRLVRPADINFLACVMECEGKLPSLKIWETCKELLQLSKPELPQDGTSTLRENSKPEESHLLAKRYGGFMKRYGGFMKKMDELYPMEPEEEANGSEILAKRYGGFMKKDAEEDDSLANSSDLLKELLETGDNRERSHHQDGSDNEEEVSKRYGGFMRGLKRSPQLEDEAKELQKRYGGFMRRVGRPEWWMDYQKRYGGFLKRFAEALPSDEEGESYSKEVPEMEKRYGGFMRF

As to “leucine-enkephalin (YGGFL; Leu-enkephalin; UniProt P01210 230-234, looked up) [endogenous opioid peptide produced in the CNS of mammals]”, the “cross-recognition by anti-morphine-heroin serum antibodies” value is listed as “not able to cross-recognize”.

Source of the values: patent US8357375B2, “Process for the preparation and use of a bivalent vaccine against morphine-heroine addiction” (Instituto Nacional de Psiquiatria Ramon de la Fuente Muniz, priority 2004, dated 2013).
